Among the data in BindingDB's records for doi:10.1016/s0960-894x(02)01047-8 (Glaxosmithkline, 2003) are IC50 values, retold here.

The chains behind the UniProt entries cited, without tags or fusion partners.
UniProt P00533, whole entry: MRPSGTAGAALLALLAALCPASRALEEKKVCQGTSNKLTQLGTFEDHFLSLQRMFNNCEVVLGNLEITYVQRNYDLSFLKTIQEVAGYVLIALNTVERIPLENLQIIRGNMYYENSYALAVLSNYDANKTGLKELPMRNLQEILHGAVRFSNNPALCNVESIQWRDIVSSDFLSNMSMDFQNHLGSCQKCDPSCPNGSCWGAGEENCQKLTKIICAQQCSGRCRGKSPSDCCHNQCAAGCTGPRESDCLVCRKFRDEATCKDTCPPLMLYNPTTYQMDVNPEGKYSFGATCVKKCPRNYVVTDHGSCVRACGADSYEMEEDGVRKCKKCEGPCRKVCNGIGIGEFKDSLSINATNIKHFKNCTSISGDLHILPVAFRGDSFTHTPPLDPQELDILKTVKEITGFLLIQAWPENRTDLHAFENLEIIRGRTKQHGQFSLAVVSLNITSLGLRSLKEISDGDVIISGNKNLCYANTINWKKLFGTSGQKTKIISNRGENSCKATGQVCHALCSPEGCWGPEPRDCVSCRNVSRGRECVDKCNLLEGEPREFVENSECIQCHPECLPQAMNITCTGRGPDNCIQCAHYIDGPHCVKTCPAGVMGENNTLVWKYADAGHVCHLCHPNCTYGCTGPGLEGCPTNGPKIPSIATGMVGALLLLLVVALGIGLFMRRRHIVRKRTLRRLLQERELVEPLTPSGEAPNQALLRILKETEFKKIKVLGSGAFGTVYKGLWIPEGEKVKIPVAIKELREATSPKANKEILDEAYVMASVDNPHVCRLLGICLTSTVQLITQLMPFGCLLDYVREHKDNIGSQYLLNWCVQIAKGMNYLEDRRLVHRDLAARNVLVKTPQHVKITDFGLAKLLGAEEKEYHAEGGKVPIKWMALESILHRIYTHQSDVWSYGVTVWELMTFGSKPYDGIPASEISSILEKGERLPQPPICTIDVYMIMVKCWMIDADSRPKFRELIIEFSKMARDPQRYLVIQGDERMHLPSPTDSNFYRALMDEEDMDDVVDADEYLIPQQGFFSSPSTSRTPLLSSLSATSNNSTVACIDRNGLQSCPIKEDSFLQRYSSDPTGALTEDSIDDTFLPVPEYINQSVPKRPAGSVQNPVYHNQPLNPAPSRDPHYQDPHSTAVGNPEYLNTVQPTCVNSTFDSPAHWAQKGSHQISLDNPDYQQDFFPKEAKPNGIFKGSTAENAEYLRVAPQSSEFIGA

For orientation: pIC50 means the IC50 on a negative log10 scale, so that one unit is a factor of ten.

pIC50: −log10 of the molar value.

The target of this assay is Epidermal growth factor receptor (Homo sapiens, UniProt P00533). In words: Kinase Inhibition Assay. As to the method:
Enzymatic reactions were initiated by adding kinase to the reaction mixture containing ATP, [gamma-33P] ATP, peptide substrate and test inhibitor compound. The reactions were terminated after 10 min at 23 °C. The reaction mix was then transferred to filter plates for scintillation counting. Each inhibitor compound was added to the reaction to produce an 11-point dose-response curve (0.0001 to 10 uM).

With `CS(=O)(=O)CCNCCCCOc1ccc2ncnc(Nc3ccc4c(cnn4Cc4cccc(F)c4)c3)c2c1` [N-{1-[(3-fluorophenyl)methyl]-1H-indazol-5-yl}-6-{4-[(2-methanesulfonylethyl)amino]butoxy}quinazolin-4-amine], the pIC50 is 7.62.
